Assay [1] deals with HLA-A0101 (human). Put plainly: competition with 125I-labelled probe peptide, purified HLA.
The target of assay [2] is HLA-A*0101 (human). In words: competition with 125I-labelled probe peptide on purified HLA-A*0101.

By Ki is commonly meant a dissociation constant, usually derived from enzyme kinetics or from competition with a known ligand. Usually IC50 stands for the concentration that gives 50% inhibition. The low end stands for inhibition by little substance, the high end for a need for much substance.

In the case of LTCGFADLM (modifications not checked), the Ki in assay [1] was 759 nM.
VIDTLTCGF (modifications not checked): in assay [1], the Ki stood at 1020 nM.
On to ATDALMTGYT (modifications not checked), for which the Ki in assay [1] turned out to be 227 nM. The IC50 in assay [2] was 227 nM.

Values taken from patent US20060093617A1.
